The list shows a part of the results, in another mix than the full data. Some salts and complexes are drawn in separate pieces, as the source files them; their charges need not balance. Calls of active or inactive are those of the source. No stated cut-off is given here; in the data, active means normalized activity above about 1.9%; inactive means the rest.

The chains behind the UniProt entries cited, without tags or fusion partners. Where a name states a change or a piece, a line headed by the entry shows the natural chain unless it says otherwise.
UniProt Q969H0, whole entry, stated change not applied: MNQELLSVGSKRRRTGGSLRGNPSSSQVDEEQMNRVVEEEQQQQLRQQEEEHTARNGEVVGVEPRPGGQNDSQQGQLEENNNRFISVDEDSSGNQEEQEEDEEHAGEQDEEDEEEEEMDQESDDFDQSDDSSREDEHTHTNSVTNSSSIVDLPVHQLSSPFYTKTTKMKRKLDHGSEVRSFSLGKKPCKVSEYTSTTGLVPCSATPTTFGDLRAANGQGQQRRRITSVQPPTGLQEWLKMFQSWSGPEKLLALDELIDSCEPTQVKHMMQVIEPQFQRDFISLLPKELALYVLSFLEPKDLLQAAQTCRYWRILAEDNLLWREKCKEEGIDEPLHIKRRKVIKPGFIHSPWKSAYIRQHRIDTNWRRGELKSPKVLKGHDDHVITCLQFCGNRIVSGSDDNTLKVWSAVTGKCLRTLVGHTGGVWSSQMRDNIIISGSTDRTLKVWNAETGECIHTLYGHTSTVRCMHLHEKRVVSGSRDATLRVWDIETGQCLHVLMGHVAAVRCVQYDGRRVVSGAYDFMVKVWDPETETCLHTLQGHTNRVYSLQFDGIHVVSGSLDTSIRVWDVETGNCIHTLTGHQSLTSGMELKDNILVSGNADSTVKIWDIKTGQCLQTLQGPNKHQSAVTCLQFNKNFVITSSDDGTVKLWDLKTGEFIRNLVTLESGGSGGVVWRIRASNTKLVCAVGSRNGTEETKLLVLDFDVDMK

The target in the assay is F-box/WD repeat-containing protein 7 (Homo sapiens) (UniProt Q969H0). Put plainly: FBW7 E3 ligase activators, primary screen, biochemical, AlphaScreen, human (AID 1259310).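 Further: purified mutant Fbw7 with reduced substrate affinity.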 To be noted: AlphaScreen FBW7–phospho-cyclin E peptide binding, activator screen; at 26.1 µM; hits give high values.
As to `CCP1(=O)Oc2cc(C(C)(C)C)cc(C(C)(C)C)c2O1` (stereo not given), the normalized activity (activation) was inactive: 0.16%.
`Nc1c([N+](=O)[O-])cc([N+](=O)[O-])c2nonc12`: the normalized activity (activation) was inactive: -0.04%.
In the case of `CP(=O)(Nc1ccccc1)Oc1ccc(F)cc1` (stereo not given) it was inactive: -0.03%.
As for `Cc1ccc(NP(C)(=O)Oc2ccc(Cl)cc2)cc1` (stereo not given), the normalized activity (activation) was inactive: 0.99%.
In the case of `CP(=O)(O)OC(c1ccccc1)C(Cl)(Cl)Cl` (stereo not given), the normalized activity (activation) was inactive: 0.5%.
On to `COc1cc2c(cc1NP(C)(=O)Oc1ccccc1)oc1ccccc12` (stereo not given), for which the normalized activity (activation) is inactive: -0.05%.
`CCOC(=O)c1ccc(NP(C)(=O)Oc2ccc(F)cc2)cc1` (stereo not given): the normalized activity (activation) is inactive: -0.18%.
Consider `Cc1ccc(Cl)c(OP(C)(=O)Nc2cccnc2)c1` (stereo not given), for which the normalized activity (activation) is inactive: -0.02%.
For the molecule `O=C(c1c([N+](=O)[O-])cc([N+](=O)[O-])cc1[N+](=O)[O-])N1CCOCC1`, the normalized activity (activation) is inactive: -0.13%.
In the case of `CP(=O)(Nc1ccc(Cl)cc1Cl)Oc1ccccc1` (stereo not given), the normalized activity (activation) was inactive: 0.03%.
Take `O=[N+]([O-])c1cc([N+](=O)[O-])c(N2CCCCCC2)c([N+](=O)[O-])c1`: the normalized activity (activation) is inactive: -0.45%.
Regarding `CP(=O)(OCCOc1ccccc1)OCCOc1ccccc1`, the normalized activity (activation) is inactive: 0.01%.
For `COCC(CN(C)[N+](=O)[O-])O[N+](=O)[O-]` (stereo not given), the normalized activity (activation) is inactive: -0.1%.
`Cc1cccc(C)c1OP(C)(=O)Nc1ccccc1` (stereo not given): the normalized activity (activation) was inactive: 0.09%.
Regarding `COc1ccccc1OP(C)(=O)Nc1ccc(C)c(C)c1` (stereo not given), the normalized activity (activation) was inactive: -0.1%.
Regarding `COc1ccc(OP(C)(=O)Nc2ccccc2Br)cc1` (stereo not given), the normalized activity (activation) was inactive: 0.35%.
As for `CCCCOc1ccc(NP(C)(=O)Oc2ccccc2OC)cc1` (stereo not given), the figure is inactive: -0.08%; as for `C/C1=C2N=C(/C=C3N=C(/C(C)=C4\[N-][C@@](C)([C@@H]5N=C1[C@](C)(CCC(=O)NC[C@@H](C)OP(=O)(O)O[C@H]1[C@@H](O)[C@@H](n6cnc7cc(C)c(C)cc76)O[C@@H]1CO)[C@H]5CC(N)=O)[C@@](C)(CC(N)=O)[C@@H]4CCC(N)=O)[C@@](C)(CC(N)=O)[C@@H]\3CCC(N)=O)C(C)(C)[C@@H]/2CCC(N)=O.[C-]#N.[Co+3]`, inactive: -0.41%.
`CP(=O)(Nc1ccc(F)cc1)Oc1ccc(Cl)cc1` (stereo not given): the normalized activity (activation) is inactive: -0.34%.
As for `CC(CN(C)C)OC(=O)C(O)(c1ccccc1)c1ccccc1` (stereo not given), the figure is inactive: 0.2%; as for `Cc1c(NP(C)(=O)Oc2ccc(C(C)C)cc2)c(=O)n(-c2ccccc2)n1C` (stereo not given), inactive: 1.15%.
As for `CCOP(C)(=S)SCN(CC(=O)O)C(=O)OCc1ccccc1` (stereo not given), the normalized activity (activation) is inactive: 0.04%.
In the case of `Nc1c([N+](=O)[O-])cc([N+](=O)[O-])c(Nc2ccccc2C(=O)O)c1[N+](=O)[O-]`, the normalized activity (activation) is inactive: 0.72%.
For `O=[N+]([O-])c1cc([N+](=O)[O-])c(Nc2ccccn2)c([N+](=O)[O-])c1`, the normalized activity (activation) is inactive: -0.5%.
`COc1ccc(OP(C)(=O)Nc2ccccn2)cc1` (stereo not given): the normalized activity (activation) is inactive: -0.08%.
As for `CCN(CC)CCOC(=O)C(O)(c1ccccc1)C1CCCCC1` (stereo not given), the figure is inactive: 0.29%; as for `CN(C)CCOC(=O)C(O)(c1ccccc1)C1CCCC1` (stereo not given), inactive: -0.27%; as for `CN(C)c1c([N+](=O)[O-])cc([N+](=O)[O-])c(N(C)C)c1[N+](=O)[O-]`, inactive: -0.11%.
`NC(=O)c1c([N+](=O)[O-])cc([N+](=O)[O-])cc1[N+](=O)[O-]`: the normalized activity (activation) is inactive: 0.04%.
Regarding `COc1ccccc1OP(C)(=O)Nc1ccc(Br)cc1` (stereo not given), the normalized activity (activation) is inactive: 0.01%.
Turning to `CN(C)C(=O)c1c([N+](=O)[O-])cc([N+](=O)[O-])cc1[N+](=O)[O-]`, the normalized activity (activation) is inactive: -0.02%.
Take `O=[N+]([O-])c1cc([N+](=O)[O-])c(Nc2ccccc2CO)c([N+](=O)[O-])c1`: the normalized activity (activation) is inactive: -0.84%.
Take `CP(=O)(Nc1ccc(F)c(Cl)c1)Oc1ccccc1` (stereo not given): the normalized activity (activation) is inactive: -0.21%.
Turning to `[O-][n+]1onc2c1c1no[n+]([O-])c1c1no[n+]([O-])c21`, the normalized activity (activation) is inactive: -0.32%.
Turning to `Cc1c([N+](=O)[O-])cc([N+](=O)[O-])c(Nc2ccc(C(=O)O)cc2)c1[N+](=O)[O-]`, the normalized activity (activation) is inactive: 0.13%.
Turning to `COc1cccc(C(OP(C)(=O)O)C(F)(F)F)c1` (stereo not given), the normalized activity (activation) is inactive: 0.5%.
`CP(=O)(Nc1ccc(Cl)cc1)Oc1ccc(F)cc1` (stereo not given): the normalized activity (activation) is inactive: -0.01%.
As for `CN(C)/C=C(\C=O)c1c([N+](=O)[O-])cc([N+](=O)[O-])cc1[N+](=O)[O-]`, the normalized activity (activation) was inactive: -0.13%.
`COc1ccccc1OP(C)(=O)Nc1c(C)n(C)n(-c2ccccc2)c1=O` (stereo not given): the normalized activity (activation) is inactive: -0.03%.
As for `OCCSCCO`, the normalized activity (activation) is inactive: 0.04%.
As to `CP(=O)(Oc1ccccc1)N1CCOC1=O` (stereo not given), the normalized activity (activation) was inactive: 0.24%.
Consider `O=[N+]([O-])c1cc([N+](=O)[O-])c(N2CCOCC2)c([N+](=O)[O-])c1`, for which the normalized activity (activation) was inactive: 0.24%.
With `CCc1ccc(OP(C)(=O)Nc2ccc(I)cc2)cc1` (stereo not given), the normalized activity (activation) was inactive: 0.15%.
As to `CN1CCCC1=C1c2cc([N+](=O)[O-])cc([N+](=O)[O-])c2-c2c1cc([N+](=O)[O-])cc2[N+](=O)[O-]`, the normalized activity (activation) is inactive: -0.18%.
For `O=C(Nc1ccccc1O)c1c([N+](=O)[O-])cc([N+](=O)[O-])cc1[N+](=O)[O-]`, the normalized activity (activation) was inactive: -0.22%.
Take `COc1ccc(OP(C)(=O)Nc2ccc(Br)cc2)cc1` (stereo not given): the normalized activity (activation) was inactive: 0.28%.
Take `O=[N+]([O-])c1cc([N+](=O)[O-])c(NCc2ccccc2)c([N+](=O)[O-])c1`: the normalized activity (activation) was inactive: -1.51%.
Take `CN(c1nc2nonc2nc1N(C)[N+](=O)[O-])[N+](=O)[O-]`: the normalized activity (activation) was inactive: 0.18%.
Take `N1=Nc2nonc2N=Nc2nonc21`: the normalized activity (activation) was inactive: 0.02%.
In the case of `C/C1=C2N=C(/C=C3N=C(/C(C)=C4\[N-]C(C(CC(N)=O)C4(C)CCC(=O)NCC(C)OP(=O)([O-])OC4C(CO)OC(n5cnc6cc(C)c(C)cc65)C4O)C4(C)N=C1C(CCC(N)=O)C4(C)CC(N)=O)C(CCC(N)=O)C\3(C)C)C(CCC(N)=O)C/2(C)CC(N)=O.C/C1=C2N=C(/C=C3N=C(/C(C)=C4\[N-]C(C(CC(N)=O)C4(C)CCC(=O)NCC(C)OP(=O)([O-])OC4C(CO)OC(n5cnc6cc(C)c(C)cc65)C4O)C4(C)N=C1C(CCC(N)=O)C4(C)CC(N)=O)C(CCC(N)=O)C\3(C)C)C(CCC(N)=O)C/2(C)CC(N)=O.[C-]#N.[Co+3]` (stereo not given) it was inactive: -0.44%.

The values are drawn from PubChem BioAssay AID1259310 (The Scripps Research Institute Molecular Screening Center, 2017).
